{
  "sequences": {"note": "Chains of the proteins cited; added tags and fusions are not shown. Residues count along the entry.", "UniProt P08069, 31-1367 limits assumed": "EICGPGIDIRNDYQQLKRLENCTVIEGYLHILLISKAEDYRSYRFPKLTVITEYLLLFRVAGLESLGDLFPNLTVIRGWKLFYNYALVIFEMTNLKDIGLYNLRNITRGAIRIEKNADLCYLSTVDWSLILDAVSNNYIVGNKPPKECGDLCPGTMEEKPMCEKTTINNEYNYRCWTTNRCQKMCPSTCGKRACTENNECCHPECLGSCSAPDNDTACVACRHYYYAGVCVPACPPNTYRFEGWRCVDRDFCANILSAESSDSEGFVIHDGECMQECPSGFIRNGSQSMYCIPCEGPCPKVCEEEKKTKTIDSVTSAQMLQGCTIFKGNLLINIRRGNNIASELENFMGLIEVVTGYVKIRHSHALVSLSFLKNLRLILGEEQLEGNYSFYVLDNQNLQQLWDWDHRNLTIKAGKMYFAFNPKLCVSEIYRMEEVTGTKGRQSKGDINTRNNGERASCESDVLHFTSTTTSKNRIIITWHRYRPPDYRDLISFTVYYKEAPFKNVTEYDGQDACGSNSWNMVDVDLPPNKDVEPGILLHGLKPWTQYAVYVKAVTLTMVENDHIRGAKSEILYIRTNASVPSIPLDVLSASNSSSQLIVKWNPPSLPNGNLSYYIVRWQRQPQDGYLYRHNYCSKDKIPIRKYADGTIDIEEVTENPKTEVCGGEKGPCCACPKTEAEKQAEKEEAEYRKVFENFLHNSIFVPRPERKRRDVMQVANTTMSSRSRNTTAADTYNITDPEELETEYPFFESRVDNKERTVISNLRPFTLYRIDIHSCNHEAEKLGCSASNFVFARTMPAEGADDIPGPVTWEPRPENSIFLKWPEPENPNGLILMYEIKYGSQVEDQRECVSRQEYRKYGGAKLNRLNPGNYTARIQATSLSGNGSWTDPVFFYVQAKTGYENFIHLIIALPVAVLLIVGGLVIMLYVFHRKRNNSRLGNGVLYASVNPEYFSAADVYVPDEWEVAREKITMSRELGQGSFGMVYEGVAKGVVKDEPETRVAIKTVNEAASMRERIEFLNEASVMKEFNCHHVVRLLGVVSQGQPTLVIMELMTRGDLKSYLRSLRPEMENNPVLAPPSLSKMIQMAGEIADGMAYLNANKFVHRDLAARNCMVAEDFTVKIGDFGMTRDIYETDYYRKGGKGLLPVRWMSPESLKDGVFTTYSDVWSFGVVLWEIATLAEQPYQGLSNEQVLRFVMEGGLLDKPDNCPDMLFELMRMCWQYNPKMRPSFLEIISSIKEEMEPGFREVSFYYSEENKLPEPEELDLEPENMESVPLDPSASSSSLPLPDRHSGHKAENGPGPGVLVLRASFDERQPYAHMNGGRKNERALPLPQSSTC"},
  "source": "patent US20120165310A1",
  "about": "“ETHER DERIVATIVES OF BICYCLIC HETEROARYLS” (NOVARTIS AG, priority 2009, published 2012)",
  "target": "IGF-1R (Homo sapiens, UniProt P08069)",
  "experiment": "Cellular IGF-1R assay: capture ELISA (MSD) of receptor phosphorylation in Hek293 cells",
  "conditions": "read-out: IGF-1R IC50; Hek293-IGF1R cells, 1 h pre-incubation, 10 min IGF stimulation, pIGF1R capture ELISA",
  "data": [
    {"compound": "Nc1ncnc2c1c(-c1cccc(OCC3CCCCO3)c1)cn2[C@H]1C[C@@H](CN2CCCS(=O)(=O)CC2)C1", "note": "(stereo partly shown)", "values": [
      {"measurement": "IC50", "result": 293, "unit": "nM"}
    ]}
  ]
}
